What was measured:
microsomal h-COX2 = microsomal h-COX2 (Homo sapiens, UniProt P35354); test: Microsomal assay, inhibition of h-COX2 (PGE2 by EIA); type: biochemical; conditions: read-out: COX-2: IC50; microsomal preparation from baculovirus infected SF9 cells; 1 hour preincubation; 0.1 μM arachidonic acid
Description: Inhibitory activity against microsomal h-COX2 was assessed against a microsomal preparation from baculovirus infected SF9 cells. An aliquot of microsomal preparation was thawed slowly on ice and a 1/40,000 dilution prepared from it into the assay buffer (sterile water, degassed with argon containing 100 mM HEPES (pH 7.4), 10 mM EDTA (pH7.4), 1 mM phenol, 1 mM reduced glutathione, 20 mg/ml gelatin and 0.001 mM Hematin). Once diluted the enzyme solution was then sonicated for 5 seconds (Branson sonicator, setting 4, 1 cm tip) to ensure a homogeneous suspension. 155 μl enzyme solution was then added to each well of a 96-well microtitre plate containing either 5 μl test compound (40× required test concentration) or 5 μl DMSO for controls. Plates were then mixed and incubated at room temperature for 1 hour. Following the incubation period, 40 μl of 0.5 μM arachidonic acid was added to each well to give a final concentration of 0.1 μM. Plates were then mixed and incubated for exactly 10 minutes (room temperature) prior to addition of 25 μl 1M HCl (hydrochloric acid) to each well to stop the reaction. 25 μl of 1M NaOH (sodium hydroxide) was then added to each well to neutralise the solution prior to determination of PGE2 levels by enzyme immunoassay (EIA).
The following IC50 values for inhibition of COX-2 and COX-1 were obtained from the microsomal assay for compounds of the invention: […]

Sequences of proteins named here, by UniProt entry; tags and fusion partners are left off. Residues count along the entry.
UniProt P35354, 18-604 limits assumed: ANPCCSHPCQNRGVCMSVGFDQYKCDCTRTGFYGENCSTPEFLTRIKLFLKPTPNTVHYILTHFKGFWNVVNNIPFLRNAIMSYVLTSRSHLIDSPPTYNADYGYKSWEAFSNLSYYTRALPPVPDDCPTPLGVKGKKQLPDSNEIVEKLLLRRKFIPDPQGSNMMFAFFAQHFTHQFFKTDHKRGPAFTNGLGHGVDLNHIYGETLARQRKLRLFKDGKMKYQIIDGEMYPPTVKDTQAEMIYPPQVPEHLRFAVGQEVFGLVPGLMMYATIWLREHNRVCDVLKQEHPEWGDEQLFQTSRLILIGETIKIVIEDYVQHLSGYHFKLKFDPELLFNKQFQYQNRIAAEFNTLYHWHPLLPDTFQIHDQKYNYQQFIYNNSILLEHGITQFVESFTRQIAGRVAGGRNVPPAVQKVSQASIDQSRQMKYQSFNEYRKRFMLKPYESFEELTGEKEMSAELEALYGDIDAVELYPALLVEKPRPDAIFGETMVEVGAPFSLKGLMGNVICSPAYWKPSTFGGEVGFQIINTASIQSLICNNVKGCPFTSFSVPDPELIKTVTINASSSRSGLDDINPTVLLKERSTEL
UniProt P23219, 24-599 limits assumed: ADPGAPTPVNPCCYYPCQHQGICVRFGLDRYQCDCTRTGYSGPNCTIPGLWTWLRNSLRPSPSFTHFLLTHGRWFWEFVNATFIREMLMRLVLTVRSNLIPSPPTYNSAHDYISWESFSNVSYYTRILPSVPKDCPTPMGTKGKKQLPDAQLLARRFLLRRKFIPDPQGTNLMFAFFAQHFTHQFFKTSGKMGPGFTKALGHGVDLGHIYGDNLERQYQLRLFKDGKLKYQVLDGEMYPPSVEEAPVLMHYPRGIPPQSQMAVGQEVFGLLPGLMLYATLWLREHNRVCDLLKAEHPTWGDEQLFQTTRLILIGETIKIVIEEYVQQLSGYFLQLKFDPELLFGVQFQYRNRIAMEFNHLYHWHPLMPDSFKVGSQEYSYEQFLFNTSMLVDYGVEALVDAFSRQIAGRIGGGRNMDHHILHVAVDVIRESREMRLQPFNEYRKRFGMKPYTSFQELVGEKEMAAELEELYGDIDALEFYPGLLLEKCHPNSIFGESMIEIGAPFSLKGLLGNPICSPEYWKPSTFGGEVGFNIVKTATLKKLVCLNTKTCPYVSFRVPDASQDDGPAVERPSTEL

COX-1 = COX-1 (Homo sapiens, UniProt P23219); test: Microsomal assay, inhibition of COX-1; type: biochemical; conditions: read-out: COX-1: IC50

SMILES	IC50 (microsomal h-COX2) [nM]	IC50 (COX-1) [nM]
CN(c1nc(-c2ccc(S(C)(=O)=O)cn2)cc(C(F)(F)F)n1)C1CCCCC1	77	26300
CS(=O)(=O)c1ccc(-c2cc(C(F)(F)F)nc(NCc3cccs3)n2)nc1	40	–
CS(=O)(=O)c1ccc(-c2cc(C(F)(F)F)nc(NCc3ccccn3)n2)nc1	542	–
CS(=O)(=O)c1ccc(-c2cc(C(F)(F)F)nc(NCc3ccc(Cl)cc3)n2)nc1	354	90200
CN(Cc1ccccc1)c1nc(-c2ccc(S(C)(=O)=O)cn2)cc(C(F)(F)F)n1	1	> 100000
Cc1ccc(CNc2nc(-c3ccc(S(C)(=O)=O)cn3)cc(C(F)(F)F)n2)cc1	193	> 100000
CN(Cc1ccco1)c1nc(-c2ccc(S(C)(=O)=O)cn2)cc(C(F)(F)F)n1	72	> 100000
CS(=O)(=O)c1ccc(-c2cc(C(F)(F)F)nc(NCc3ccco3)n2)nc1	748	46800
CS(=O)(=O)c1ccc(-c2cc(C(F)(F)F)nc(NC3CCCC3)n2)nc1	433	> 96100
Cc1ccc(CNc2nc(-c3ccc(S(C)(=O)=O)cn3)cc(C(F)(F)F)n2)o1	218	> 100000

From patent US7235560B2, “Pyrimidine derivative as selective COX-2 inhibitors” (priority 2002, dated 2007)
